# Measurements as given in the supplement of paper PMC12669032.
# Only a part is listed here, and it is no random draw.
# System: Akkermansia muciniphila
# Assay: growth AUC relative to DMSO control (median of replicates) (fraction); higher = more growth (less inhibition), active = hit call of the paper
# Conditions: 20 µM; 24 h;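 active = AUC reduced over 20% with Padj below 0.05 in at least 2 of 3 replicates; inactive = otherwise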
# Method: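 Anaerobic monocultures of 22 human gut bacterial strains grown at 37 °C in mGAM with 20 µM compound (1% DMSO), starting OD600 0.05. OD600 read hourly for 24 h. Value is the median of 3 biological replicates. Hit: >20% AUC reduction and Padj<0.05 in at least 2 of 3 replicates.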
row,SMILES,growth AUC
1,CCOP(=S)(OCC)Oc1ncn(-c2ccccc2)n1,inactive: 1.14
2,CCOc1nc(C(Cl)(Cl)Cl)ns1,inactive: 0.92
